# Where a SMILES comes first, the peptide text is derived from it. The star is where a group is joined. NOTA = O=C(O)CN1CCN(CC(=O)O)CCN(CC(=O)*)CC1; Aoc = NCCCCCCCC(=O)O
# System: PC-3 cells
# Format: binding, human
# Conditions: initial experiment, inhibitor range 56 to 0.44 nM
# Experimental: A NOTA-conjugated bombesin derivative (IMP468) was prepared as described above. We began testing its ability to block radiolabeled bombesin from binding to PC-3 cells as was done by Prasanphanich et al. (PNAS 104:12462-12467, 2007). Our initial experiment was to determine if IMP468 could specifically block bombesin from binding to PC-3 cells. We used IMP333 as a non-specific control. […] A range of 56 to 0.44 nM was used as our inhibitory concentrations.
# This experiment was repeated using a commercially available BBN peptide. We increased the amount of inhibitory peptide from 250 to 2 nM to block the ^125I-BBN from binding to PC-3 cells.
structure (smiles),measurement,value
CSCC[C@H](NC(=O)[C@H](CC(C)C)NC(=O)[C@H](Cc1c[nH]cn1)NC(=O)CNC(=O)[C@@H](NC(=O)[C@H](C)NC(=O)[C@H](Cc1c[nH]c2ccccc12)NC(=O)[C@@H](NC(=O)[C@H](Cc1c[nH]c2ccccc12)NC(=O)CCCCCCCNC(=O)CN1CCN(CC(=O)O)CCN(CC(=O)O)CC1)C(C)C)C(C)C)C(N)=O [IMP468] ({NOTA-Aoc}-WVWAVGHLM-NH2),block the binding of ^125I-BBN,could block

# Source: patent US20160199524A1, “RADIOSENSITIVITY OF FLUOROPHORES AND USE OF RADIOPROTECTIVE AGENTS FOR DUAL-MODALITY IMAGING” (Immunomedics, Inc., priority 2015, published 2016)
